Measured values published in ChEMBL document CHEMBL1144008, “Synthesis, nitric oxide release, and anti-leukemic activity of glutathione-activated nitric oxide prodrugs: Structural analogues of PABA/NO, an anti-cancer lead compound” (Bioorg Med Chem, 2008).

Assay: Nitric oxide release at 100 to 150 nM in pH7.4 in presence of GSH
Format: functional
In short: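 Performed in 0.1 M pH 7.4 phosphate buffer with 1 mM GSH, sparged with inert gas until detector baseline was steady. Prodrug stock injected to final 100–150 nM. NO release followed at 37 °C. Area under the release curve integrated to give mol NO released per mol compound.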

In the case of `CN(C)/[N+]([O-])=N/Oc1cc(OC(=O)c2ccc([N+](=O)[O-])cc2)c([N+](=O)[O-])cc1[N+](=O)[O-]`, the Activity is reported as 0%.
